Data: PMC12186844 (ACS Chemical Neuroscience, 2025)
Like-named read-outs stand apart in the source and are kept apart here.

Amino acid sequences for entries named in this document (tags omitted).
UniProt P14416, whole entry: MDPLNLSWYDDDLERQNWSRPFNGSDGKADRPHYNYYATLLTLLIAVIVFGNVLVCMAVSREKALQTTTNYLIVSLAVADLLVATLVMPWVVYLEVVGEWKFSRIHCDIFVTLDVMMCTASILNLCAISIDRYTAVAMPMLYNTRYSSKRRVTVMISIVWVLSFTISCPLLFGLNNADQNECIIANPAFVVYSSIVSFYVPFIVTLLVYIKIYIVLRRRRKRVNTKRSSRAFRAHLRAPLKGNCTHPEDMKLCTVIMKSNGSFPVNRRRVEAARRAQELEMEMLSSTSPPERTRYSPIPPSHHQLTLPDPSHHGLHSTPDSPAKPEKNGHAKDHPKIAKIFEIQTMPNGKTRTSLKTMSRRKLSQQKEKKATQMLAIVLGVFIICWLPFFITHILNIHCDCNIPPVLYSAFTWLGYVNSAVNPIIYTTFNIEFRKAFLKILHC

Target: D2LR (Homo sapiens, UniProt P14416)
Experiment: whole cell [3H]raclopride binding assay
[1] = orthosteric ligand, radioligand binding assay

Row | SMILES | KA [1] | pKA [1] | KA | pKA
1 | CCCN1CCC[C@@H](c2cccc(O)c2)C1 [S-(3)-PPP, reference compound] | 1740 nM | 5.76 ± 0.18 |  | 
2 | CCN1CCC[C@H]1CNC(=O)c1c(O)c(Cl)cc(Cl)c1OC (racemic) [[3H]raclopride, reference compound] |  |  | 1.4 nM | 8.86 ± 0.16
